Protein sequences, listed by entry. Tags and fused reporters are not part of them. Residues count along the entry.
UniProt F1N4Y2, 29-488: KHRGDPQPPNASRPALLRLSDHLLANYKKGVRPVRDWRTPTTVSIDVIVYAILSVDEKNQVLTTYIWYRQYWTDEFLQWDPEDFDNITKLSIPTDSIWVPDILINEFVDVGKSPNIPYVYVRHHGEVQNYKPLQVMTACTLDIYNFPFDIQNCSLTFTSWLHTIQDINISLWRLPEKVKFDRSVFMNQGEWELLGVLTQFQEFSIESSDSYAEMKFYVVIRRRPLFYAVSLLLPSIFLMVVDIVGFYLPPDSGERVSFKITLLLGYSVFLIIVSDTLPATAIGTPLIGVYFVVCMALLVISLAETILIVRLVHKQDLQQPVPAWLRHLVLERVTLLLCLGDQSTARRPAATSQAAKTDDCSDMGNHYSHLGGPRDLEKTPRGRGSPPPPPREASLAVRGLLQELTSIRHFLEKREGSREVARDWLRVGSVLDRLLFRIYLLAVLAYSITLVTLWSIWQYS

According to patent US5756355A, “Lipid membrane sensors” (Ecole Polytechnique Federale de Lausanne, priority 1992, dated 1998):

Target: T1, 5-HT3 receptor (Bos taurus, UniProt F1N4Y2)
T1 construct: from tissue; host or cells: calf brain, entorhinal cortex and hippocampus; detergent (OPG) solubilised and purified on 5-HT-agarose
Test: Current responses of gold-supported lipid bilayer sensor with incorporated 5-HT3 receptor during stimulation by agonists, without or with antagonist
Type: biochemical, calf
Method: A 1 mm^2 gold electrode was cleaned and inserted into the electrochemical cell as described in Example 5. First, 100 μl of the thiolipid/OPG solution (0.7 mM/48 mM in 0.1 M KCl) was added and the adsorption process followed as described in Example 6. After approximately 2 minutes, the solution was completely replaced. The sample was washed several times with 55 mM OGP in 0.1 M KCl.
A receptor-containing solution was prepared as follows: 2 mg (2.9 μmol) of DMPC, 2 mg (2.6 μmol) of POPC (i.e. an approximately 1:1 molar ratio of DMPC: POPC) and 2 mg ([…]) of OPG were ultrasonicated in 1 ml of 0.1 M KCl, until the solution became clear. This solution was mixed with 15 μg of the 5-HT3 receptor (1 mg/ml, in 40 mM OPG and complex buffer "A" as used in Example 4), 100 μl of the receptor-containing solution was placed in the cell. After about 2 minutes, the cell solution was diluted stepwise by the addition of small portions of 0.1 M KCl. Finally, the solution was completely replaced by 0.1 M KCl. The resulting layer was used for experiments within 5 hours at most, then being removed by washing with 55 mM OGP in 0.1 M KCl and formed again using the ice-cooled receptor solution.
50 μl portions of 5-HT solution "B" (20 μM 5-HT in 0.1 M KCl) were added successively to the layer with the incorporated receptor (still connected to the cell containing 500 μl of 0.1 M KCl). An interval of about 50 seconds was left between additions (the capacitive and the faradaic current reaching a constant value).
The construction of the receptor-containing system was performed as described above. Again, 500 μl of 0.1 M KCl was placed in the measurement cell but for stimulation, a solution "C" of 20 μM 1-phenylbiguanide, another agonist, in 0.1 M KCl was used.
The supported lipid bilayer, containing the 5-HT3 receptor, was formed as described in (ii). […] After each addition, the values of the capacitive and the faradaic currents were allowed to stabilize.
A large (geometrical area about 1 cm^2) AgCl-coated Ag wire served as the counter/reference electrode and was fixed at a defined distance from the working electrode. The impedance measurements were made using a two-channel lock-in amplifier (EG&G model 5206) at v=120 Hz, applying Uo =17.5 mV RMS to the electrochemical cell. The real and imaginary parts of the impedance were obtained from the currents in phase (faradaic component Ifarad) and 90° out of phase (capacitive component Icap) with the applied voltage, respectively. These currents were measured on a 1 k.OMEGA. resistor in series with the electrodes.

[1] = with 10 nM ICS 205-930, 5-HT 14 μM
[2] = with 10 nM ICS 205-930, 5-HT 117 μM
[3] = with 10 nM ICS 205-930, 5-HT 200 μM
[4] = with 10 nM ICS 205-930, 5-HT 263 μM
[5] = with 10 nM ICS 205-930, 5-HT 311 μM
[6] = with 10 nM ICS 205-930, 5-HT 350 μM
[7] = with 10 nM ICS 205-930, 5-HT 382 μM
[8] = with 10 nM ICS 205-930, 5-HT 408 μM
[9] = with 10 nM ICS 205-930, 5-HT 431 μM
[10] = with 10 nM ICS 205-930, 5-HT 450 μM
[11] = with 10 nM ICS 205-930, 5-HT 700 μM (pure solution D)
[12] = without ICS, 5-HT 20.0 μM (pure solution B)

NCCc1c[nH]c2ccc(O)cc12 [5-hydroxytryptamine]
Icap current response (5-HT 1.82 μM, Experiment 1): 101.5 nA | Ifarad current response (5-HT 1.82 μM, Experiment 1): 25 nA | Icap current response (5-HT 1.82 μM, Experiment 2): 100 nA | Ifarad current response (5-HT 1.82 μM, Experiment 2): 23.2 nA | Icap current response (5-HT 3.33 μM, Experiment 1): 103.4 nA | Ifarad current response (5-HT 3.33 μM, Experiment 1): 26.2 nA | Icap current response (5-HT 3.33 μM, Experiment 2): 102.1 nA | Ifarad current response (5-HT 3.33 μM, Experiment 2): 24.5 nA | Icap current response (5-HT 4.62 μM, Experiment 1): 104.8 nA | Ifarad current response (5-HT 4.62 μM, Experiment 1): 26.9 nA | Icap current response (5-HT 4.62 μM, Experiment 2): 103.3 nA | Ifarad current response (5-HT 4.62 μM, Experiment 2): 25.2 nA | Icap current response (5-HT 5.71 μM, Experiment 1): 105.6 nA | Ifarad current response (5-HT 5.71 μM, Experiment 1): 27.3 nA | Icap current response (5-HT 5.71 μM, Experiment 2): 104.3 nA | Ifarad current response (5-HT 5.71 μM, Experiment 2): 25.6 nA | Icap current response (5-HT 6.66 μM, Experiment 1): 106.2 nA | Ifarad current response (5-HT 6.66 μM, Experiment 1): 27.5 nA | Icap current response (5-HT 6.66 μM, Experiment 2): 105.1 nA | Ifarad current response (5-HT 6.66 μM, Experiment 2): 26.0 nA | Icap current response (5-HT 7.50 μM, Experiment 1): 106.8 nA | Ifarad current response (5-HT 7.50 μM, Experiment 1): 27.7 nA | Icap current response (5-HT 7.50 μM, Experiment 2): 105.6 nA | Ifarad current response (5-HT 7.50 μM, Experiment 2): 26.2 nA | Icap current response (5-HT 8.24 μM, Experiment 1): 107.2 nA | Ifarad current response (5-HT 8.24 μM, Experiment 1): 27.7 nA | Icap current response (5-HT 8.24 μM, Experiment 2): 106.1 nA | Ifarad current response (5-HT 8.24 μM, Experiment 2): 26.3 nA | Icap current response (5-HT 8.89 μM, Experiment 1): 107.5 nA | Ifarad current response (5-HT 8.89 μM, Experiment 1): 27.7 nA | Icap current response (5-HT 8.89 μM, Experiment 2): 106.3 nA | Ifarad current response (5-HT 8.89 μM, Experiment 2): 26.3 nA | Icap current response (5-HT 9.47 μM, Experiment 1): 107.8 nA | Ifarad current response (5-HT 9.47 μM, Experiment 1): 27.7 nA | Icap current response (5-HT 9.47 μM, Experiment 2): 106.5 nA | Ifarad current response (5-HT 9.47 μM, Experiment 2): 26.3 nA | Icap current response (5-HT 10.0 μM, Experiment 1): 108.1 nA | Ifarad current response (5-HT 10.0 μM, Experiment 1): 27.7 nA | Icap current response (5-HT 10.0 μM, Experiment 2): 106.5 nA | Ifarad current response (5-HT 10.0 μM, Experiment 2): 26.3 nA | Icap current response (5-HT 10.5 μM, Experiment 1): 108.1 nA | Ifarad current response (5-HT 10.5 μM, Experiment 1): 27.7 nA | Icap current response (5-HT 10.5 μM, Experiment 2): 106.5 nA | Ifarad current response (5-HT 10.5 μM, Experiment 2): 26.3 nA | Icap current response [1]: 16.1 nA | Ifarad current response [1]: 89.1 nA | Icap current response [2]: 18.1 nA | Ifarad current response [2]: 89.8 nA | Icap current response [3]: 19.1 nA | Ifarad current response [3]: 90.2 nA | Icap current response [4]: 19.7 nA | Ifarad current response [4]: 90.4 nA | Icap current response [5]: 20.2 nA | Ifarad current response [5]: 90.6 nA | Icap current response [6]: 20.5 nA | Ifarad current response [6]: 90.7 nA | Icap current response [7]: 20.7 nA | Ifarad current response [7]: 90.7 nA | Icap current response [8]: 20.8 nA | Ifarad current response [8]: 90.7 nA | Icap current response [9]: 20.9 nA | Ifarad current response [9]: 90.7 nA | Icap current response [10]: 20.9 nA | Ifarad current response [10]: 90.7 nA | Icap current response [11]: 20.9 nA | Ifarad current response [11]: 90.7 nA | Icap current response (without ICS, 5-HT 0.1 μM): 16.6 nA | Ifarad current response (without ICS, 5-HT 0.1 μM): 89.0 nA | Icap current response (without ICS, 5-HT 1.8 μM): 17.8 nA | Ifarad current response (without ICS, 5-HT 1.8 μM): 90.3 nA | Icap current response (without ICS, 5-HT 3.3 μM): 18.9 nA | Ifarad current response (without ICS, 5-HT 3.3 μM): 91.0 nA | Icap current response (without ICS, 5-HT 4.6 μM): 19.4 nA | Ifarad current response (without ICS, 5-HT 4.6 μM): 91.5 nA | Icap current response (without ICS, 5-HT 5.7 μM): 19.8 nA | Ifarad current response (without ICS, 5-HT 5.7 μM): 91.8 nA | Icap current response (without ICS, 5-HT 6.7 μM): 20.1 nA | Ifarad current response (without ICS, 5-HT 6.7 μM): 92.0 nA | Icap current response (without ICS, 5-HT 7.5 μM): 20.3 nA | Ifarad current response (without ICS, 5-HT 7.5 μM): 92.1 nA | Icap current response (without ICS, 5-HT 8.9 μM): 20.7 nA | Ifarad current response (without ICS, 5-HT 8.9 μM): 92.3 nA | Icap current response (without ICS, 5-HT 10.0 μM): 21.0 nA | Ifarad current response (without ICS, 5-HT 10.0 μM): 92.5 nA | Icap current response (without ICS, 5-HT 11.7 μM): 21.2 nA | Ifarad current response (without ICS, 5-HT 11.7 μM): 92.6 nA | Icap current response [12]: 21.2 nA | Ifarad current response [12]: 92.6 nA
